# Test results from the supplement of paper PMC9446081.
# Shown are results outside the selection of hits, which stands elsewhere.
# Test system: Escherichia coli K-12 BW25113
# Assay: relative growth (OD600 normalised to plate interquartile mean) (fraction); higher = less growth inhibition, active = 0.2 or less
# Conditions: 50 µM; LB; incubation time: overnight (16-24 h)
# 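Also: Wild-type cells incubated without shaking, value is the mean of two biological replicates.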
row,SMILES,relative growth
1,COc1cc(Br)c(C[N+]2(CCOCC[C@H]3CC[C@@H]4C[C@H]3C4(C)C)CCOCC2)cc1OC,inactive: 0.946
2,COc1c2ccccc2nc2occc12,inactive: 0.697
3,c1ccc(-c2ccccn2)cc1,inactive: 0.993
